Target: BACE (Homo sapiens, UniProt P56817)
Assay: Inhibition of BACE (IC50 quoted for the inhibitors used in crystal soaking experiments)
Conditions: BACE inhibitor potency stated in text; assay method not described

Sequences of proteins named here, by UniProt entry; tags and fusion partners are left off. Residues count along the entry.
UniProt P56817, 46-501 limits assumed: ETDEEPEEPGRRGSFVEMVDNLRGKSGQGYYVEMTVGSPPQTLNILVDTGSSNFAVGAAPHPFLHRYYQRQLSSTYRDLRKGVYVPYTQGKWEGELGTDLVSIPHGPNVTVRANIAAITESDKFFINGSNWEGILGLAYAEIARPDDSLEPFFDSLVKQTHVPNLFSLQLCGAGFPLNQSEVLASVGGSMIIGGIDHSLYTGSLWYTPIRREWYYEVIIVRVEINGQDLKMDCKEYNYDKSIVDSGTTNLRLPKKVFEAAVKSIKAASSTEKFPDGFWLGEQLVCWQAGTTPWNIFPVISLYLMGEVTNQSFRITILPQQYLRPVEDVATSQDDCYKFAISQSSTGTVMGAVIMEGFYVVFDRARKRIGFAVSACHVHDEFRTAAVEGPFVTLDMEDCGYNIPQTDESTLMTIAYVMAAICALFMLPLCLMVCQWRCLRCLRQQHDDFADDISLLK

In the case of `COc1cccc(CNC[C@@H](O)[C@H](Cc2ccccc2)NC(=O)c2cc(C)cc(-c3ccsc3)c2)c1`, the IC50 is reported as 8.8 µM.

— patent US7829303B1 (ELAN PHARMACEUTICALS, dated 2010)
